Here are results for one molecule from US7196083B2, “Heteropolycyclic inhibitors of protein kinases” (priority 2000, dated 2007).

For this assay, the system named is A-549 (human lung carcinoma). Nature of the assay: [3H] thymidine uptake cell proliferation assay, A549. Conditions: read-out: Cell Proliferation in A459 IC50 in nm; A459 cells. Type of assay: cell-based.

As to `Cc1nc2nnnn2nc1C`, the IC50 is over 10 µM.
